Antibody variant affinities, Ab-91 heavy chain, assay 2

Data: MIT Lincoln Laboratory AlphaSeq set, Engelhart et al. 2022, doi:10.1038/s41597-022-01779-4, as distributed in FLAb.

The target is the same throughout: PDVDLGDISGINAS, from the HR2 region of SARS-CoV-2 spike.

The variants keep the light chain, the linker and the frameworks of Ab-91 (scFv order VL, three GGGGS repeats, VH).
VL: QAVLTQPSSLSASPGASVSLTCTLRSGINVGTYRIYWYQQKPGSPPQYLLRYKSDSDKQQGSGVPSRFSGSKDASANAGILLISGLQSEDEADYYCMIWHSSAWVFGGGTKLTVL
VH: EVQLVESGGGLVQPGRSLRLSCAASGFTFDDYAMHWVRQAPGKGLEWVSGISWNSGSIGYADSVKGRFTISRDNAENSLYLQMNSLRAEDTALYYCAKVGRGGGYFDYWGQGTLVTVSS

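In library AAYL51, one, two or three CDR residues were substituted; doubles and triples were drawn at random. Affinity was read by AlphaSeq, a pooled yeast mating assay with surface-displayed partners. The frequency of each diploid, read from paired DNA barcodes, reflects how well the two displayed proteins bind. The ratio of observed to expected reads was calibrated, replicate by replicate, on BCL2-family standards whose Kd was known from biolayer interferometry. Each pool was mated in three replicate cultures.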

Variants are written as CDR1, CDR2 and CDR3 of the heavy chain (limits as in the source). Parent: GFTFDDYAMH, GISWNSGSIGYADSVK, VGRGGGYFDY.
Scale: log10 of Kd in nM, estimated from mating counts; low values are strong binders.
Averages over replicates are reported, and they cover detected replicates only.
An entry "n.d." has no value in the source: the pair was not observed among the diploids in that replicate. This suggests poor binding but is not conclusive.
For reference, the parent read 1.86 as the reference entry and 0.88 as a member of this library.
Three control strains display no target. For library AAYL51, 21% of the pairings with them gave a signal, with a median of 4.54 and one signal in twenty below 3.26, so weak values seen in few replicates may be background. The control count says in how many pairings with the empty strains this scFv gave a signal, with their mean in brackets.

| CDR-H1 | CDR-H2 | CDR-H3 | replicates, log10 nM | mean log10 Kd (nM) | control signals |
|---|---|---|---|---|---|
| GFTFDDYAMH | GIAWNSGSIGYADSVK | EGRSGGYFDY | 1.19 / 1.25 / 0.74 | 1.06 | 4/9 (4.51) |
| GFTCDDYAMH | GISWSSGSIGYADSVK | VGRGGEYFDY | n.d. / n.d. / n.d. | n.d. | 0/9 |
| SFTFDDYAMH | GISWNSGSIGYADSVK | AGRGGGYFDY | 2.70 / 2.66 / 4.28 | 3.21 | 2/9 (4.64) |
| GFTFDDYAMH | DISWNSGSIGYWDEVK | VGRGGGYFDY | n.d. / n.d. / n.d. | n.d. | 2/9 (3.11) |
| GFTFDDYAMH | GISPNSGSIGYADSVK | VGRGGPVFDY | 6.48 / n.d. / n.d. | 6.48 | 6/9 (5.40) |
| GFTFLDYAMH | GISWNSGSIGYADWYK | VGRGGGYFDY | 2.49 / 3.09 / n.d. | 2.79 | 0/9 |
| GFTDDDYAMH | GISWNSGHIGYADSVK | VGRGGGYFDY | n.d. / n.d. / n.d. | n.d. | 1/9 (3.45) |
| GFTFDDYAMH | GISWHSGHIGYADSVK | VGRGGGYEDY | n.d. / n.d. / n.d. | n.d. | 2/9 (3.89) |
| GFSFDDYAMH | GISWNPGSFGYADSVK | VGRGGGYFDY | n.d. / n.d. / 3.25 | 3.25 | 1/9 (2.77) |
| GLTFFDYAMH | GISWNSGSIGFADSVK | VGRGGGYFDY | n.d. / n.d. / n.d. | n.d. | 0/9 |
| GFTFDDYAMH | GISWNEGSIGYADSVK | GGRGGGCFDY | 2.43 / 2.97 / 2.91 | 2.77 | 1/9 (4.10) |
| GFTFYDYAMH | GISWNPGSIGYADSCK | VGRGGGYFDY | 5.06 / n.d. / 5.14 | 5.10 | 6/9 (4.83) |
| GFTFDDYAMH | GISWNSWSIGYADSVK | VGDGGGYGDY | 4.57 / 4.59 / 5.38 | 4.85 | 6/9 (5.05) |
| GFTFDDYAMH | GISWNSGPIHYADSVK | NGRGGGYFDY | 5.48 / 4.88 / n.d. | 5.18 | 2/9 (5.23) |
| GFTFDRYQMH | GISWNSGSIGYADSVQ | VGRGGGYFDY | n.d. / n.d. / 5.08 | 5.08 | 8/9 (4.99) |
| YFTFDDYAMH | GISWNSGSIGFADSVK | PGRGGGYFDY | n.d. / n.d. / n.d. | n.d. | 0/9 |
| GMTPDDYAMH | GVSWNSGSIGYADSVK | VGRGGGYFDY | 3.85 / 4.22 / n.d. | 4.04 | 0/9 |
| GFTFLDYAMH | GISWNSGSIGYADSVK | VGKGGGYFDY | 2.20 / 2.09 / 1.76 | 2.02 | 1/9 (3.88) |
| GFTFDVYAMH | GISWNSGSYGYADSVK | WGRGGGYFDY | n.d. / n.d. / n.d. | n.d. | 0/9 |
| GFTFDDYAMH | GISWNSGSIGNARSVK | VERGGGYFDY | n.d. / n.d. / n.d. | n.d. | 2/9 (4.39) |
| GFTFDDYAMH | GISWMSHSIGYADSVK | VGRGGGYFDY | 3.80 / 4.86 / 4.58 | 4.41 | 4/9 (4.47) |
| GFTFDDYAMH | GISWNSYSIGYDDNVK | VGRGGGYFDY | 3.20 / 3.08 / 3.08 | 3.12 | 4/9 (4.89) |
| GFTFDDYAMH | GISHRSGSIGYADSVK | VGRGGGYFDP | n.d. / 5.07 / n.d. | 5.07 | 5/9 (4.45) |
| GGTFDDYAMY | GISWNSGSIGYADSVK | VGRGGGYPDY | 4.57 / n.d. / n.d. | 4.57 | 0/9 |
| GFTFDDYAMH | GISWNSGSIGYADSVK | VDRGGGYLDY | n.d. / n.d. / n.d. | n.d. | 0/9 |
| GFQFDDYAMH | GISWNSGSIGYAMEVK | VGRGGGYFDY | 2.06 / 2.20 / 1.71 | 1.99 | 2/9 (3.83) |
| EFTFYDTAMH | GISWNSGSIGYADSVK | VGRGGGYFDY | 3.78 / n.d. / 2.72 | 3.25 | 1/9 (3.56) |
| GFTFDDYAMH | GISWNSIKIGYADSVK | VGDGGGYFDY | 4.37 / 4.63 / 5.57 | 4.86 | 7/9 (5.39) |
| GFTFDPYAMH | GISLNSGSIGYADSVK | VGRGGGYFDD | n.d. / n.d. / 3.13 | 3.13 | 2/9 (3.26) |
| GFTFDDYAMH | VISWNSGSIGYADSVK | VGRGGFYFDY | 4.30 / n.d. / 6.47 | 5.39 | 8/9 (5.03) |
| LFTFDDYAMH | GINWNSGSIAYADSVK | VGRGGGYFDY | n.d. / n.d. / n.d. | n.d. | 0/9 |
| FFTFDDYAMH | GNSWNSGSIGWADSVK | VGRGGGYFDY | n.d. / n.d. / n.d. | n.d. | 5/9 (4.31) |
| GFTFDDYLMS | GIEWNSGSIGYADSVK | VGRGGGYFDY | n.d. / n.d. / n.d. | n.d. | 2/9 (3.25) |
| GFTFDDYVMH | GISWNSGSIGYDDSVK | VGRCGGYFDY | n.d. / n.d. / n.d. | n.d. | 0/9 |
| GFTFDDDAQH | GISWNSGSIGYADSVK | VIRGGGYFDY | n.d. / 2.62 / n.d. | 2.62 | 0/9 |

Picked from the list: the 5 lowest averages where every replicate gave a value.

CDR-H1	CDR-H2	CDR-H3	replicates, log10 nM	mean log10 Kd (nM)	control signals
GFTFDDYAMH	GIAWNSGSIGYADSVK	EGRSGGYFDY	1.19 / 1.25 / 0.74	1.06	4/9 (4.51)
GFQFDDYAMH	GISWNSGSIGYAMEVK	VGRGGGYFDY	2.06 / 2.20 / 1.71	1.99	2/9 (3.83)
GFTFLDYAMH	GISWNSGSIGYADSVK	VGKGGGYFDY	2.20 / 2.09 / 1.76	2.02	1/9 (3.88)
GFTFDDYAMH	GISWNEGSIGYADSVK	GGRGGGCFDY	2.43 / 2.97 / 2.91	2.77	1/9 (4.10)
GFTFDDYAMH	GISWNSYSIGYDDNVK	VGRGGGYFDY	3.20 / 3.08 / 3.08	3.12	4/9 (4.89)